Laboratory results published in patent publication US10722444B2, “Stable hydrogel compositions including additives” (Allergan Industrie, SAS, priority 2014, dated 2020).

Experiment: Autoclaving stability of HA-based gel with additive (pH, extrusion force, rheology, appearance)
Assay type: physicochemical
Settings: for appearance of the gel / ΔTan δ / ΔpH: catechin 0.1% of commercial solution in HA-based gel matrix at 24 mg/g containing 5% uncrosslinked HA; for ΔTan δ / ΔpH: gel with additive minus gel without
Method: Stability of a hydrogel composition disclosed herein can be determined by subjecting a hydrogel composition to a heat treatment, such as, e.g., steam sterilization at normal pressure or under pressure (e.g., autoclaving). Preferably the heat treatment is carried out at a temperature of at least about 100° C. for between about one minute and about 15 minutes. Substantial stability of a hydrogel composition disclosed herein can be evaluated 1) by determining the change in the extrusion force (ΔF) of a hydrogel composition disclosed herein after sterilization, where the change in extrusion force less 2N is indicative of a substantially stable hydrogel composition as measured by (the extrusion force of a hydrogel composition with the specified additives) minus (the extrusion force of the a hydrogel composition without the added additives); and/or 2) by determining the change in rheological properties of a hydrogel composition disclosed herein after sterilization, where the change in tan δ 1 Hz of less than 0.1 is indicative of a substantially stable hydrogel composition as measured by Δ Tan δ 1 Hz=(tan δ 1 Hz of gel formulation with additives) minus (tan δ 1 Hz of gel formulation without additives). As such, a substantially stable hydrogel composition disclosed herein retains one or more of the following characteristics after sterilization: homogeneousness, extrusion force, cohesiveness, hyaluronan concentration, agent(s) concentration, osmolarity, pH, or other rheological characteristics such as tan δ.
Reminder for stability assessment with extrusion force: ΔF (F gel with additive −F gel without additive)<2N
Reminder for stability assessment with rheology: ΔTan δ (Tan δ 1 Hz gel with additive −Tan δ 1 Hz gel without additive)<0.1
Caffeic acid, at a concentration of 0.6%,(w/w), was incorporated into a HA-based gel matrix at 24 mg/g containing 5% of uncrosslinked HA. The gel formulated was autoclaved.
Inoveol® CAFA (supplied by Libragen), (INCI name: Aqua (and) Caffeyl Glucoside), a derivative of caffeic acid, at a concentration of 0.5% (w/w) of commercial solution, was incorporated into a HA-based gel matrix containing a viscoelastic portion. The gel formulated was autoclaved.
Catechin, at a concentration of 0.1% of commercial solution, was incorporated into a HA-based gel matrix at 24 mg/g containing 5% of uncrosslinked HA. The gel formulated was autoclaved.
Inoveol EGCG (supplied by Libragen), (INCI Name: Epigallocatechin Gallatyl Glucoside), a derivative of catechin, at a concentration of 0.5% of commercial solution, was incorporated into a HA-based gel matrix containing viscoelastic portion. The gel formulated was autoclaved.

Catechin
appearance of the gel (after autoclaving): clear with orange color
ΔTan δ (after autoclaving): 0.162
ΔpH (after autoclaving): −0.35
rheological and extrusion force analysis, finding (autoclaved gel with catechin 0.1%): degradation of the gel
appearance of the gel (before autoclaving): clear and slightly orange
ΔTan δ (before autoclaving): 0.008
ΔpH (before autoclaving): −0.11
